The nature of the series: Stability testing of peptides in human plasma. In kind it is in vitro ADME. Particulars: Human Plasma at 24 h, 37° C.; read-out: % stable peptide. As for the experimental part:
Stability testing of peptides in plasma. The stability in plasma of the peptides […], […], […] and […] was determined as follows. […] The frozen blank plasma from human, rat and mouse had been thawed and heated to a temperature of 37° C. before addition of the stock solution. The spiked plasma samples were gently mixed and allowed to equilibrate for about 5 minutes before start of experiment. The plasma samples were incubated for 48 hours in a Galaxy® CO2 incubator at 37° C. […] The samples were stored at -70° C. until analysis. Plasma samples were assayed as follows. The 30 μL plasma samples were protein precipitated with […] of cold ethanol in a 96-well low bind plate (Eppendorf Protein LoBind). After mixing and centrifugation 100 μl the supernatant was transferred to a new plate and 1 μl was injected onto an analytical column. The analysis was performed using a μLC-system ([…]) coupled to a medium high resolution mass spectrometer (Perkin Elmer PenTOF) with positive electrospray ionisation. […] Flow: 0.1 ml/min using a slow reversed phase gradient. […] Products with +1 mass may arise from deamidation at amide groups of glutamine or at the C-terminus. Cleavage products arise from the action of the protease DPP IV in plasma. […] Peaks were integrated and % remaining peptide was calculated: […] […]

Experimental findings from US20220098265A1 (MEDIMMUNE LIMITED, priority 2012, published 2022) are described below.

In the case of `CCCCCCCCCCCCCCCC(=O)N[C@@H](CCC(=O)NCCCC[C@H](NC(=O)[C@H](CC(=O)O)NC(=O)[C@H](CO)NC(=O)[C@@H](NC(=O)[C@H](Cc1ccccc1)NC(=O)[C@@H](NC(=O)CNC(=O)[C@H](CCC(N)=O)NC(=O)[C@H](CO)NC(=O)[C@@H](N)Cc1c[nH]cn1)[C@@H](C)O)[C@@H](C)O)C(=O)N[C@@H](CO)C(=O)N[C@@H](CCC(=O)O)C(=O)N[C@@H](Cc1ccc(O)cc1)C(=O)N[C@@H](CC(C)C)C(=O)N[C@@H](CC(=O)O)C(=O)N[C@@H](CO)C(=O)N[C@@H](CCC(=O)O)C(=O)N[C@@H](CCCNC(=N)N)C(=O)N[C@@H](C)C(=O)N[C@@H](CCCNC(=N)N)C(=O)N[C@@H](CC(=O)O)C(=O)N[C@@H](Cc1ccccc1)C(=O)N[C@H](C(=O)N[C@@H](C)C(=O)N[C@@H](Cc1c[nH]c2ccccc12)C(=O)N[C@@H](CC(C)C)C(=O)N[C@@H](CCC(=O)O)C(=O)N[C@@H](C)C(=O)NCC(=O)NCC(=O)O)C(C)C)C(=O)O` [Peptide G933], the remaining at 24 h was found to be 86%.
